Experimental data: patent publication US20120316137A1, “Methods and Compositions for Treating Cancer” (priority 2009, published 2012)

Tested on: wtFGFR2 Hec1B cells
Experiment: Cell growth assay (72 h)
Settings: Homo sapiens, HEC-1B, read-out: Cell growth GI50 (nM)

## Cc1ccc(C(=O)Nc2ccc(CN3CCN(C)CC3)c(C(F)(F)F)c2)cc1C#Cc1cnc2cccnn12 [Compound 1, 3-(imidazo[1,2-b]pyridazin-3-ylethynyl)-4-methyl-N-(4-((4-methylpiperazin-1-yl)-methyl)-3-(trifluoromethyl)phenyl)benzamide]
  GI50: 490 nM
